Experiments:
[1] = Lipophilicity determination by RP-TLC; type: physicochemical; set-up: key to RM (MeOH:H2O): RM = log(1/RF - 1), from RP-18 TLC
Description: RM values were determined from the RP-18 TLC measurements. The solutions of compounds in Metanol Chromasolv^TM (Honeywell) were spotted on a RP-TLC plate (Silica gel Nano-SIL C18-100 UV 254, 10 × 10 cm, Macherey-Nagel, Duren, Germany), 1.5 cm from the edge. The volatiles were carefully evaporated, and the plate was developed by MeOH (100%) or MeOH: H2O-HPLC (72:28 v/v) or MeOH: NaOAc buffer, pH 7.4 (72:28 v/v). After drying, the spots were visualized under UV (λ = 365 nm). RM data were obtained from equation: RM = log(1/RF-1). Each experiment was repeated three times.

[2] = physchem

SMILES: O=C(/C=C/c1ccccc1)Nc1ccccc1 [Compound 1, (2E)-N-Phenyl-3-phenylprop-2-enamide]
- RM (100% MeOH) [1]: −0.5087
- RM (MeOH:H2O) [1]: 0.2848
- RM (pH 7.4) ([1]; pH 7.4): 0.4038
- chromatographic logD ([2]; pH 6.5): 0.109
- chromatographic logD ([2]; pH 7.4): 0.125
